Screens deposited in PubChem BioAssay by National Center for Advancing Translational Sciences (NCATS).
Sampled rows, rich in hits. Any-hit rate of the full collection: about 16%.
miR-21 FLuc – miR-21 reporter, rising signal; Potency, µM (titrated, usually from 38.3 µM), without a hit: at the highest dose reporter change, positive = more light; AID 2288; 340,000 tested, under 10 active; HeLa miR-21 FLuc reporter, luciferase, 48 h; active = well fitted rising curve with a large enough effect; inconclusive = small, poorly fitted or top-dose-only effect; inactive = no such curve, though single readings can be large or run the other way;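 note: % of control where 0% means no effect; miR-21 action dims this reporter so a rising signal means less miR-21 action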
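HeLa miR-21-FLuc reporter line, endogenous miR-21; 2000 cells/well in DMEM/10% FBS; compound titration up to ~40uM final, 48 h, 37 degree Celsius; luciferase detection reagent, 15 min lysis, CCD luminescence.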
TDP1 cell CPT – DT40-hTDP1 cell growth loss with CPT | chicken DT40 Tdp1-/-;hTDP1 cells + 20 nM CPT, ATP luminescence, 48 h | Potency, µM (doses to about 46.2 µM), without a hit: top-dose activity change, negative = growth inhibition, hits mostly inhibitors | actives 12% (n = 420,000) | AID 686979; also: potency is read from the fitted curve at half-maximal effect; % is scaled to controls: 0 for no effect and ±100 for the full control effect; nearly all actives have a fitted effect of over 55% in size
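Cell growth measured by CellTiter-Glo luminescence after a minimum 48 h, 37 C compound exposure with 20 nM CPT in Tdp1-knockout DT40 cells stably expressing hTDP1, seeded 400/well; qHTS titration format.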
uPA surface inh – inhibitors of cell surface uPA generation; cell surface uPA generation assay, qHTS; Potency, µM (titrated, usually from 38.3 µM), without a hit: at the top dose activity change, negative = inhibition, actives largely listed as inhibitors; actives 0.31% (n = 330,000); AID 540303; active = well fitted inhibition curve with a large enough effect; inconclusive = small, poorly fitted or top-dose-only effect; inactive = no such curve, though single readings can be large or run the other way; tested in mouse RAW 264.7 cells; also: potency is read from the fitted curve at half-maximal effect; % is scaled to controls: 0 for no effect and ±100 for the full control effect; nearly all actives have a fitted effect of over 55% in size
TDP1 cell noCPT – qHTS for Inhibitors of human tyrosyl-DNA phosphodiesterase 1 (TDP1): qHTS in cells in absence of CPT. DT40 Tdp1-/- hTDP1 cells, no CPT, ATP luminescence, 48 h. Potency, µM (highest dose often 46.2 µM), inactives show at the highest dose activity change, negative = growth inhibition, usual class: inhibitors. actives 15% (n = 420,000). AID 686978, 2013; also: potency is read from the fitted curve at half-maximal effect; % is scaled to controls: 0 for no effect and ±100 for the full control effect; nearly all actives have a fitted effect of over 55% in size
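Cells were dispensed at 400 per well, compounds added by pin tool, plates incubated ≥48 hr at 37 °C, then CellTiter-Glo added for 30 min at room temperature before luminescence reading. Line: DT40 Tdp1-/- complemented with hTDP1; camptothecin omitted.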
TDP1 block – inhibitors of human tyrosyl-DNA phosphodiesterase TDP1; AID 485290; Q9NUW8; Potency, µM (top dose mostly 130 µM), without a hit: at the top dose activity change, negative = inhibition, most hits filed as inhibitors; actives 0.28% (n = 350,000); recombinant TDP1, AlphaScreen DNA substrate cleavage; also: potency is read from the fitted curve at half-maximal effect; % is scaled to controls: 0 for no effect and ±100 for the full control effect; nearly all actives have a fitted effect of over 40% in size
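Signal: AlphaScreen proximity between streptavidin donor and anti-FITC acceptor beads on intact substrate. Reaction: Tdp1 1 nM, substrate 15 nM final, 5 min RT after 15 min compound preincubation.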
An asterisk follows results filed as active; u = inconclusive; x = no result; [ ] = dose if it differs, or a comment. Unless noted, calls follow the shape of the dose curve; as a rule, active = well fitted curve in the direction sought with a large enough effect; inconclusive = small, poorly fitted or top-dose-only effect, or another doubt; inactive = no such curve, though single readings can be large; an effect the other way counts as inactive or inconclusive.

SMILES	miR-21 FLuc	TDP1 cell CPT	uPA surface inh	TDP1 cell noCPT	TDP1 block
C[C@@H](CSc1ccccc1)CN1CC[C@H](NC(=O)OCc2ccccc2)CCC1=O	8%	u	8%	10µM*	x
Cc1c(Cl)cccc1NC(=O)CSc1nc2ncccc2o1	-23%	u	x	u	7%
CCOC(=O)C1C(=O)C(=O)N(C(C)C)C1C(=O)OCC (stereo not given)	x	3%	3%	4%	x
O=c1cc(N/N=C/c2ccccc2)[nH]c(=O)[nH]1	x	4.1µM*	10%	4.6µM*	x
CCOC(=O)c1ccc(NC(=S)N(CCCN(CC)CC)Cc2ccco2)cc1	-13%	9%	-9%	-27%	4%
COC(=O)/C(=C(O)\C=C\c1ccccc1[N+](=O)[O-])c1nc2ccccc2[nH]1	-7%	12µM*	-6%	15µM*	4%[0.0935 µM]
COc1cccc(N2CCN(C(=O)c3ccc4c(Cl)c5c(nc4c3)CCCC5)CC2)c1	-2%	21µM*	x	21µM*	8%
Cc1cccc(N2CCN(C(=O)c3ccc4c(Cl)c5c(nc4c3)CCCC5)CC2)c1C	1%	18µM*	x	u	2%
CC(=O)N1CCN(S(=O)(=O)c2cccc(C(=O)Nc3ccccc3N3CCOCC3)c2)CC1	0%	6%	-7%	-25%	5%
COCCCN(C(=O)c1ccc2ccccc2n1)c1c(N)n(Cc2ccccc2)c(=O)[nH]c1=O	x	1%	-4%	-26%	0%

Grouped by structure, those above with a carbonyl joined to an NH by a bond outside any ring (3)
SMILES	miR-21 FLuc	TDP1 cell CPT	uPA surface inh	TDP1 cell noCPT	TDP1 block
C[C@@H](CSc1ccccc1)CN1CC[C@H](NC(=O)OCc2ccccc2)CCC1=O	8%	u	8%	10µM*	x
Cc1c(Cl)cccc1NC(=O)CSc1nc2ncccc2o1	-23%	u	x	u	7%
CC(=O)N1CCN(S(=O)(=O)c2cccc(C(=O)Nc3ccccc3N3CCOCC3)c2)CC1	0%	6%	-7%	-25%	5%

Later entries
SMILES	miR-21 FLuc	TDP1 cell CPT	uPA surface inh	TDP1 cell noCPT	TDP1 block
CCCCc1c(C)nn(-c2nnc3c4ccccc4n(C)c3n2)c1C	-21%	23µM*	-4%	23µM*	2%
O=C(CSc1nc2ccccc2c(=O)n1CC1CCCO1)Nc1ccc(F)cc1 (stereo not given)	6%	u	-2%	u	21%
CCNC(=S)N/N=C(\C)c1cccc(C(F)(F)F)c1	-14%	u	10%	u	2%
C/C(=N\NC(=S)NC1CCCCC1)c1ccc(C#N)cc1	-18%	u	2%	u	2%
C/C(=N\NC(=S)NC1CCCCC1)c1cccc(C(F)(F)F)c1	-3%	21µM*	-9%	23µM*	x
C/C(=N\NC(=S)NC1CCCCC1)c1cccc(Br)c1	-21%	u	1%	16µM*	3%
CCCCNC(=S)N/N=C1\C(=O)c2cccc3cccc1c23	-1%	u	-2%	26µM*	7%
O=C(N/N=C1\C(=O)c2cccc3cccc1c23)c1ccc(O)cc1	-11%	u	2%	u	0%
CCNC(=S)N1CCN(CCN2C(=O)c3cccc4cccc(c34)C2=O)CC1	-4%	-27%	5%	u	-2%
CNC(=S)N/N=C1\C(=O)c2cccc3cccc1c23	-5%	29µM*	1%	16µM*	10%
Cc1ccc(NC(=O)C(C)Sc2nnc(C)n2CC2CCCO2)cc1 (stereo not given)	-6%	0%	0%	-14%	11%
COCCN(Cc1cc2cc3c(cc2[nH]c1=O)OCO3)C(=O)c1cccs1	2%	x	x	x	6%
CCOc1ccc2[nH]c3c(N4CCN(c5ccccn5)CC4)ncnc3c2c1	10%	8.9µM*	x	16µM*	10%
Cc1sc2ncnc(N3CCN(Cc4ccccc4)CC3)c2c1-c1ccccc1	4%	u	-6%	u	8%
Cc1ccc2[nH]c3c(N4CCN(Cc5ccc6c(c5)OCO6)CC4)ncnc3c2c1	-4%	x	x	x	1%
Cc1ccc2c(c1)[nH]c1c(N3CCN(Cc4ccccc4)CC3)ncnc12	30%	5.8µM*	-22%	4.6µM*	3%
Cc1ccc2[nH]c3c(N4CCN(Cc5ccccc5)CC4)ncnc3c2c1	u	13µM*	-14%	9.2µM*	7%
CCOc1ccc(NC(=O)CSc2ncc3c(n2)-c2cc(Cl)ccc2N(C)S3(=O)=O)cc1	6%	-27%	x	-19%	3%
COC(=O)c1ccc(NC(=O)CSc2ncc3c(n2)-c2cc(Cl)ccc2N(Cc2ccccc2)S3(=O)=O)cc1	6%	u	x	21µM*	8%
Cc1ccccc1CN1c2ccccc2-c2nc(SCC(=O)Nc3cc(F)ccc3F)ncc2S1(=O)=O	-1%	u	x	10µM*	3%
COc1ccc(C)cc1NC(=O)CSc1ncc2c(n1)-c1ccc(Cl)cc1N(Cc1ccccc1)S2(=O)=O	10%	9.2µM*	x	u	3%
CCc1cccc(NC(=O)CSc2ncc3c(n2)-c2cc(Cl)ccc2N(C)S3(=O)=O)c1	-8%	u	x	u	5%
COc1cccc(CNC(=O)CSc2ncc3c(n2)-c2cc(Cl)ccc2N(C)S3(=O)=O)c1	-2%	21µM*	x	u	3%
COc1ccc(NC(=O)CSc2ncc3c(n2)-c2ccccc2N(Cc2ccc(C)cc2)S3(=O)=O)cc1Cl	9%	u	x	u	-4%
O=C(NCc1nnc(SCC(=O)N2CCCCCC2)o1)c1ccco1	2%	-6%	1%	1%	2%
COc1ccc(/C=N/NC(=O)CN2CCSCC2)cc1C	-7%	3%	-3%	-7%	0%
Cc1cccc(C)c1NC(=O)CSc1ncc2c(n1)-c1ccc(Cl)cc1N(Cc1ccccc1)S2(=O)=O	-1%	u	x	16µM*	-3%
O=C(CSc1ncc2c(n1)-c1ccc(Cl)cc1N(Cc1ccccc1)S2(=O)=O)Nc1ccc(F)c(F)c1	0%	23µM*	x	18µM*	8%
O=C(CSc1ncc2c(n1)-c1cc(Cl)ccc1N(Cc1ccccc1F)S2(=O)=O)Nc1cccc(C(F)(F)F)c1	6%	18µM*	x	u	-3%
COc1ccc(CNC(=O)CSc2ncc3c(n2)-c2ccc(Cl)cc2N(Cc2ccccc2)S3(=O)=O)cc1	-1%	u	x	u	5%

Brought forward from above: 3 compounds, then new ones.
SMILES	miR-21 FLuc	TDP1 cell CPT	uPA surface inh	TDP1 cell noCPT	TDP1 block
O=C(CSc1ncc2c(n1)-c1ccc(Cl)cc1N(Cc1ccccc1)S2(=O)=O)Nc1ccc(F)c(F)c1	0%	23µM*	x	18µM*	8%
O=C(CSc1ncc2c(n1)-c1cc(Cl)ccc1N(Cc1ccccc1F)S2(=O)=O)Nc1cccc(C(F)(F)F)c1	6%	18µM*	x	u	-3%
COc1ccc(CNC(=O)CSc2ncc3c(n2)-c2ccc(Cl)cc2N(Cc2ccccc2)S3(=O)=O)cc1	-1%	u	x	u	5%
CCN(C(=O)CSc1ncc2c(n1)-c1cc(Cl)ccc1N(Cc1ccccc1)S2(=O)=O)c1cccc(C)c1	0%	u	x	16µM*	3%
COc1ccc(OC)c(C(=O)CSc2ncc3c(n2)-c2ccccc2N(Cc2ccccc2C)S3(=O)=O)c1	0%	18µM*	x	u	0%
COc1ccccc1NC(=O)CSc1ncc2c(n1)-c1cc(Cl)ccc1N(Cc1ccccc1)S2(=O)=O	0%	u	x	u	0%
Cc1ccccc1CN1c2ccccc2-c2nc(SCC(=O)c3ccccc3)ncc2S1(=O)=O	0%	0%	x	0%	5%
O=C(CSc1ncc2c(n1)-c1cc(Cl)ccc1N(Cc1ccccc1)S2(=O)=O)Nc1ccc(F)cc1F	18%	18µM*	x	u	0%
CC(=O)N1C2CCCCC2S[C@H]2CCCCC21 (stereo not given in full)	-7%	3%	6%	-7%	3%
